The record followed here is ChEMBL document CHEMBL3232832, “Derivatives of dibenzothiophene for positron emission tomography imaging of α7-nicotinic acetylcholine receptors” (J Med Chem, 2013).

Protein sequences, listed by entry. Tags and fused reporters are not part of them.
UniProt Q05941, whole entry: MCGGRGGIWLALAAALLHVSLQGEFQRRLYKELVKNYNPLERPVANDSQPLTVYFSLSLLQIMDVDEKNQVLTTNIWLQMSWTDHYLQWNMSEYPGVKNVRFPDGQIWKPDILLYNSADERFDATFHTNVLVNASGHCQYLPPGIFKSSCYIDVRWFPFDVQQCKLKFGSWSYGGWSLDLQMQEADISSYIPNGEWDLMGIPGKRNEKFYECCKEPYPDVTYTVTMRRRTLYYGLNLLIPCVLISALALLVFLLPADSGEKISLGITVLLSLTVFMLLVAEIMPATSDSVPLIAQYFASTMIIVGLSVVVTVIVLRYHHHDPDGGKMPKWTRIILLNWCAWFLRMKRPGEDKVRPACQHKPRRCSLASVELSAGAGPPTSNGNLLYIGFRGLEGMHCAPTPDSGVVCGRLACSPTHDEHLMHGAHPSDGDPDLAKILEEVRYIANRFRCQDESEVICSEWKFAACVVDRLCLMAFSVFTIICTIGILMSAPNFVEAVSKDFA

The experiment concerns the target Neuronal acetylcholine receptor subunit alpha-7 (Rattus norvegicus, UniProt Q05941). Nature of the experiment: Displacement of [125I]alpha-bungarotoxin from Sprague-Dawley rat brain alpha7-nAChR after 3 hrs. (In general: In a radioligand displacement assay an active substance lowers the binding of a labelled ligand.)

For the molecule `O=C(Oc1ccc([76Br])cc1)N1CCN2CCC1CC2`, the Ki – broadly, a dissociation constant, usually derived from enzyme kinetics or from competition with a known ligand – was 24.9 nM.
